Data published in US8288430B2, “Spiro(5.5)undecane derivatives” (Grunenthal GmbH, priority 2008, dated 2012).

The chains behind the UniProt entries cited, without tags or fusion partners. Where a name states a change or a piece, a line headed by the entry shows the natural chain unless it says otherwise.
UniProt P35372, whole entry, looked up: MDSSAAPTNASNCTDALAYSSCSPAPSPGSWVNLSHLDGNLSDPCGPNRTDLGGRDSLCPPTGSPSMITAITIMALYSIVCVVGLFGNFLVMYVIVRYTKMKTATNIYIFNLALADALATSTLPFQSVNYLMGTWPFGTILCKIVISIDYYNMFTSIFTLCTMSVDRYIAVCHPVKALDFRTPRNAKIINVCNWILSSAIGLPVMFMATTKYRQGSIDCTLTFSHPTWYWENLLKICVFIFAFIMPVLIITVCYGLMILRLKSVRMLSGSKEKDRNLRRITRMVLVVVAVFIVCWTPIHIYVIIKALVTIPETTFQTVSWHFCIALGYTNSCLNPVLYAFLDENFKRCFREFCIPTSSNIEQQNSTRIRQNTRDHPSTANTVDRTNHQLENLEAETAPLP
UniProt P41146: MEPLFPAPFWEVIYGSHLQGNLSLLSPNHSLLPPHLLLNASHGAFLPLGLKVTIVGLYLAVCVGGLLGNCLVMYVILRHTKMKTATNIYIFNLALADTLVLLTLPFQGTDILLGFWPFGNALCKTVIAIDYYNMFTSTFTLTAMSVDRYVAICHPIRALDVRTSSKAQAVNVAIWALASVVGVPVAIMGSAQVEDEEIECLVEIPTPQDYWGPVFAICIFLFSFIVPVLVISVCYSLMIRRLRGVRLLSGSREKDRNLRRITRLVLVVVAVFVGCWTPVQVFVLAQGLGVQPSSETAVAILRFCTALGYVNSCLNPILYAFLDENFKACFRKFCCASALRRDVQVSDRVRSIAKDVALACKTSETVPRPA

Key:
human μ-opiate receptor = human μ-opiate receptor (Homo sapiens, UniProt P35372); assay: μ-opiate receptor binding assay with [3H]-naloxone; settings: for % Inhibition (μ) [1 μM]: test concentration 1 μM
ORL 1-receptor = ORL 1-receptor (Homo sapiens, UniProt P41146); assay: ORL 1 receptor binding assay with 3H-nociceptin/orphanin FQ; settings: for % Inhibition (ORL1) [1 μM]: test concentration 1 μM

Compound	% Inhibition (μ) [1 μM] (human μ-opiate receptor; 1 µM)	% Inhibition (ORL1) [1 μM] (ORL 1-receptor; 1 µM)	Ki (human μ-opiate receptor; read-out: Ki (μ) Mean)	% Inhibition (μ) [1 μM] (human μ-opiate receptor)	Ki (ORL 1-receptor; read-out: Ki (ORL1) Mean, Table 1)	% Inhibition (ORL1) [1 μM] (ORL 1-receptor)
4′-(3-fluorophenyl)-N,N-dimethyl-N-2,3,4,9-tetrahydrospiro[carbazole-1,1′-cyclohexane]-4′-amine [Ex. 11]	91%	74%				
c1ccc(C2(N3CCC3)CCC3(CCCc4c3[nH]c3ccccc43)CC2)cc1 (stereo not drawn)			7 nM	96%	11 nM	96%
CN(C)C1(c2ccccc2)CCC2(CCCc3c2[nH]c2ccncc32)CC1 (stereo not drawn)				67%		40%
C[C@@H]1Cc2c([nH]c3ccccc23)C2(CCC(c3ccccc3)(N(C)C)CC2)C1 (stereo partly drawn)				97%		96%
4′-(3-fluorophenyl)-N,N-dimethyl-N-2,3,4,9-tetrahydrospiro[carbazole-1,1′-cyclohexane]-4′-amine [Ex. 12]	98%	96%				
